# scFv variants of Ab-91 (heavy chain) against a SARS-CoV-2 spike peptide

Antigen: PDVDLGDISGINAS, a 14-residue peptide of the SARS-CoV-2 spike HR2 region.

Ab-91 is the parent antibody, in scFv form: VL, then the linker GGGGSGGGGSGGGGS, then VH. The light chain is unchanged in all variants.
VL: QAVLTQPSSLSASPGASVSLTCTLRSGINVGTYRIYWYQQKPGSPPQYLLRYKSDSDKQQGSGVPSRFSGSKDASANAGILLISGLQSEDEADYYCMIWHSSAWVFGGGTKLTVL
VH: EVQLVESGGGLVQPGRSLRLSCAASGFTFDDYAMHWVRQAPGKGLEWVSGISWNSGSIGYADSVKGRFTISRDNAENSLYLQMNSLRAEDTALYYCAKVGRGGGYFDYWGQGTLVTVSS

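Variants in AAYL51 differ from the parent at up to three CDR positions; double and triple changes were sampled at random. The assay is AlphaSeq: two haploid yeast populations carry antibody and antigen on their surface. The frequency of each diploid, read from paired DNA barcodes, reflects how well the two displayed proteins bind. Read counts were normalised to the haploid input and turned into Kd by a linear fit to BCL2-family pairs of known affinity, for each replicate. Each pool was mated in three replicate cultures.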

The parent's heavy chain CDRs are GFTFDDYAMH, GISWNSGSIGYADSVK, VGRGGGYFDY; each variant's own CDRs replace them letter for letter.
The read-out is the apparent dissociation constant on a log10 scale (nM): the lower, the stronger.
The mean shown is taken over the replicates in which the pair was detected.
"n.d." marks a missing value. The strain was present, yet no cells mated with the target were sequenced in that replicate, which points to weak or no binding.
Parent in this assay: reference entry 1.86, copy in this library 0.88.
Nonspecific signal, from three strains lacking the peptide, appeared in 21% of pairings of library AAYL51, centred on 4.54 (5% of these signals below 3.26); values are not corrected for it. The control count says in how many pairings with the empty strains this scFv gave a signal, with their mean in brackets.

| # | CDR-H1 | CDR-H2 | CDR-H3 | replicates, log10 nM | log10 Kd (nM), mean | signal with controls |
|---|---|---|---|---|---|---|
| 1 | GFTFDDYAMC | GESWNSGSIGYADSPK | VGRGGGYFDY | n.d. / 3.82 / n.d. | 3.82 | 4/9 (4.93) |
| 2 | GFTFSDYANH | GISWNSGSIGYADSVK | VGRDGGYFDY | 4.04 / n.d. / n.d. | 4.04 | 0/9 |
| 3 | GFTFDDYGMH | GISWNSGLIGYADSVK | VGHGGGYFDY | 1.01 / 1.26 / 0.74 | 1.00 | 0/9 |
| 4 | GFTFDDYAMH | GISWNSGSIGYYDSVG | VGRGRGYFDY | n.d. / n.d. / n.d. | n.d. | 2/9 (3.83) |
| 5 | GFTFDDYAMH | GISWNSGSIGYAKSVK | VGRVGGYFDY | 4.53 / 5.71 / 4.30 | 4.85 | 4/9 (4.41) |
| 6 | GFTFDDYAMH | GINQNSGSIGYADSVK | VGRGGAYFDY | 5.06 / n.d. / 5.10 | 5.08 | 4/9 (4.70) |
| 7 | GFTFDDYAMH | MISWWSGSIGYADSVK | VGRCGGYFDY | n.d. / n.d. / n.d. | n.d. | 0/9 |
| 8 | GFTFDDYAMH | GISWNSGSICYADVVK | VFRGGGYFDY | 5.38 / 5.33 / 5.00 | 5.24 | 4/9 (5.36) |
| 9 | GFTFDDYAMH | GISWNSGSIGIADSVK | VGRGGGYQNY | n.d. / n.d. / n.d. | n.d. | 1/9 (4.78) |
| 10 | GFTFQVYANH | GISWNSGSIGYADSVK | VGRGGGYFDY | 3.64 / n.d. / n.d. | 3.64 | 0/9 |
| 11 | GFTFDDYAMH | GISWNKGSIGYADSTK | VGRGGGYFDY | 4.80 / n.d. / n.d. | 4.80 | 3/9 (4.64) |
| 12 | GFTFDDYAMH | GISANSGSIGYADSVK | VGRGCGYFDS | n.d. / n.d. / n.d. | n.d. | 0/9 |
| 13 | GFTFDGYAMH | GISWNSGSIGKADSVK | HGRGGGYFDY | n.d. / 3.58 / n.d. | 3.58 | 1/9 (3.02) |
| 14 | GFTFDDYAMH | GDSWNSGSIGYADSVT | VGRGGGYFDY | n.d. / n.d. / n.d. | n.d. | 1/9 (4.29) |
| 15 | GFTGDDYAMH | NISWNSGSIGYADSVK | VGRGGGVFDY | n.d. / n.d. / n.d. | n.d. | 4/9 (4.38) |
| 16 | GFTFDDYAMH | GISWNSGSIDYADSVK | VGRGTGYMDY | n.d. / n.d. / n.d. | n.d. | 4/9 (4.44) |
| 17 | GFTFDDYAMH | GISWNSISIGYADSVK | YGRGGGYFCY | 6.52 / 4.90 / n.d. | 5.71 | 3/9 (4.77) |
| 18 | GFTFTDYAMH | GISWASGSIGYADSVK | VGRGGGYFDY | 3.09 / 2.98 / 4.17 | 3.41 | 0/9 |
| 19 | GFTFDDYAMH | GISWNQGSWGYADSVK | VGRGGGMFDY | n.d. / n.d. / n.d. | n.d. | 0/9 |
| 20 | GFTFDDYAMH | GIYWNSGSIGYADSVK | VGAGGGYFDD | n.d. / n.d. / n.d. | n.d. | 0/9 |
| 21 | GFTFDDYAMH | GIPWSSQSIGYADSVK | VGRGGGYFDY | n.d. / 5.99 / n.d. | 5.99 | 2/9 (4.46) |
| 22 | GFTFSDYAMH | GISWNSGSIGYQDSVK | VGDGGGYFDY | 1.76 / 2.16 / 1.27 | 1.73 | 3/9 (4.48) |
| 23 | GFTFDDYAQH | GILWNSGSIGYATSVK | VGRGGGYFDY | n.d. / n.d. / n.d. | n.d. | 0/9 |
| 24 | GFTFDDYAMH | GISWWSGSIGYADSVK | VGRMGGYGDY | 4.83 / 5.97 / 4.76 | 5.19 | 5/9 (4.69) |
| 25 | GFTFDDYAMH | GISWLSGSIGYADSVK | VGRGGGEFIY | n.d. / n.d. / n.d. | n.d. | 0/9 |
| 26 | MFTFDDYAMH | GISQNSGSIGYADSVK | VGVGGGYFDY | 3.30 / 2.76 / n.d. | 3.03 | 0/9 |
| 27 | GFTFDDCAMH | GIVWNSGSIGYADRVK | VGRGGGYFDY | 4.11 / 4.01 / n.d. | 4.06 | 0/9 |
| 28 | GFTFDDYAMH | GISWNYGSIGYADIVK | VGRGGGYFDY | 5.27 / 4.32 / n.d. | 4.80 | 0/9 |
| 29 | GFTFDDYVMH | IISWNSGSIGYADSVK | VGRGGGYFHY | 4.72 / n.d. / n.d. | 4.72 | 1/9 (2.47) |
| 30 | GFTFDDYAMH | VISWNSGSIGYADSVK | VGRGGGYNDY | 4.90 / n.d. / n.d. | 4.90 | 6/9 (4.59) |
| 31 | GFTFDDYADH | DISWNSGSIGYADSVK | VGRGGGYGDY | n.d. / n.d. / n.d. | n.d. | 1/9 (4.90) |
| 32 | GFTFDDYAMH | GISWNSGTIGYADFVK | VGRGGGYFDY | n.d. / 4.78 / 4.67 | 4.72 | 1/9 (4.22) |
| 33 | GFTFDDYAIH | GISWNSGSIGYADSVK | HGRGGGTFDY | n.d. / 5.60 / n.d. | 5.60 | 3/9 (4.00) |
| 34 | GFTFDDYAMH | GISWNEGSIPYADSVK | VGVGGGYFDY | 6.13 / 5.50 / n.d. | 5.81 | 6/9 (5.15) |
| 35 | GFTFDDYATP | GISYNSGSIGYADSVK | VGRGGGYFDY | n.d. / n.d. / n.d. | n.d. | 1/9 (3.72) |
| 36 | GFTFDDYAMH | EISWNSGSIGYADSVK | VGRKGGYFDY | 3.87 / 3.63 / n.d. | 3.75 | 2/9 (4.35) |
| 37 | GFTFDDYAMR | GISWNSGSIGEADSVK | VGRGGGYNDY | 3.84 / n.d. / n.d. | 3.84 | 2/9 (3.79) |
| 38 | FFTFDDYAMH | KISWNSGSIGYADSVK | VGRGHGYFDY | n.d. / n.d. / n.d. | n.d. | 2/9 (4.75) |
| 39 | GATFDDYAMH | GISWNSGSKGYADSVF | VGRGGGYFDY | 5.27 / 5.53 / n.d. | 5.40 | 1/9 (4.92) |
| 40 | GFTFDDYAMH | GISWNSQSIGIALSVK | VGRGGGYFDY | n.d. / n.d. / n.d. | n.d. | 0/9 |
| 41 | GFTSDDYKMH | GISWNSGSIGYADSVK | NGRGGGYFDY | 4.79 / 6.25 / n.d. | 5.52 | 1/9 (4.60) |
| 42 | GFTFDDYACH | GISWNSGSIGYEDSVK | VGRGGGYFDR | n.d. / 5.19 / n.d. | 5.19 | 1/9 (4.21) |
| 43 | GFTFDDSAMH | GISWNSGSIGYCDEVK | VGRGGGYFDY | 2.66 / 3.24 / 2.88 | 2.93 | 4/9 (4.47) |
| 44 | GFTFDGYAMH | GISPNSGSIGYADSVK | VHRGGGYFDY | 5.32 / n.d. / 4.92 | 5.12 | 4/9 (4.40) |
| 45 | GFTLDKYAMH | GISWNSGSPGYADSVK | VGRGGGYFDY | n.d. / 5.12 / n.d. | 5.12 | 1/9 (4.04) |
| 46 | GFTFDKYAMH | GISWNSGSIGYADSVK | VGRGRGYFDD | n.d. / 4.38 / n.d. | 4.38 | 0/9 |
| 47 | GFAFDDYAMH | GISENSGSIGYADSVK | VGRGGGYIDY | n.d. / n.d. / n.d. | n.d. | 0/9 |
| 48 | GFTFDDYAMH | GISWNSGSIGLADSVK | VGRGGGYWDY | 3.14 / 3.10 / 3.58 | 3.27 | 4/9 (4.72) |
| 49 | RFTPDDYAMH | GISWVSGSIGYADSVK | VGRGGGYFDY | 6.31 / n.d. / 4.85 | 5.58 | 5/9 (4.93) |

The first 8 variants above that were never detected:

{"CDR-H1": "GFTFDDYAMH", "CDR-H2": "GISWNSGSIGYYDSVG", "CDR-H3": "VGRGRGYFDY", "replicates, log10 nM": "n.d. / n.d. / n.d.", "log10 Kd (nM), mean": "n.d.", "signal with controls": "2/9 (3.83)"}
{"CDR-H1": "GFTFDDYAMH", "CDR-H2": "MISWWSGSIGYADSVK", "CDR-H3": "VGRCGGYFDY", "replicates, log10 nM": "n.d. / n.d. / n.d.", "log10 Kd (nM), mean": "n.d.", "signal with controls": "0/9"}
{"CDR-H1": "GFTFDDYAMH", "CDR-H2": "GISWNSGSIGIADSVK", "CDR-H3": "VGRGGGYQNY", "replicates, log10 nM": "n.d. / n.d. / n.d.", "log10 Kd (nM), mean": "n.d.", "signal with controls": "1/9 (4.78)"}
{"CDR-H1": "GFTFDDYAMH", "CDR-H2": "GISANSGSIGYADSVK", "CDR-H3": "VGRGCGYFDS", "replicates, log10 nM": "n.d. / n.d. / n.d.", "log10 Kd (nM), mean": "n.d.", "signal with controls": "0/9"}
{"CDR-H1": "GFTFDDYAMH", "CDR-H2": "GDSWNSGSIGYADSVT", "CDR-H3": "VGRGGGYFDY", "replicates, log10 nM": "n.d. / n.d. / n.d.", "log10 Kd (nM), mean": "n.d.", "signal with controls": "1/9 (4.29)"}
{"CDR-H1": "GFTGDDYAMH", "CDR-H2": "NISWNSGSIGYADSVK", "CDR-H3": "VGRGGGVFDY", "replicates, log10 nM": "n.d. / n.d. / n.d.", "log10 Kd (nM), mean": "n.d.", "signal with controls": "4/9 (4.38)"}
{"CDR-H1": "GFTFDDYAMH", "CDR-H2": "GISWNSGSIDYADSVK", "CDR-H3": "VGRGTGYMDY", "replicates, log10 nM": "n.d. / n.d. / n.d.", "log10 Kd (nM), mean": "n.d.", "signal with controls": "4/9 (4.44)"}
{"CDR-H1": "GFTFDDYAMH", "CDR-H2": "GISWNQGSWGYADSVK", "CDR-H3": "VGRGGGMFDY", "replicates, log10 nM": "n.d. / n.d. / n.d.", "log10 Kd (nM), mean": "n.d.", "signal with controls": "0/9"}

The measurements come from Engelhart et al. 2022 (doi:10.1038/s41597-022-01779-4) through the FLAb antibody collection.